A word on the EC50: it is the concentration needed to bring the measured effect to its halfway point. Lower therefore signals an effect from little substance.

By UniProt entry, the sequences of proteins in these tests, tags left out.
UniProt P34972, whole entry: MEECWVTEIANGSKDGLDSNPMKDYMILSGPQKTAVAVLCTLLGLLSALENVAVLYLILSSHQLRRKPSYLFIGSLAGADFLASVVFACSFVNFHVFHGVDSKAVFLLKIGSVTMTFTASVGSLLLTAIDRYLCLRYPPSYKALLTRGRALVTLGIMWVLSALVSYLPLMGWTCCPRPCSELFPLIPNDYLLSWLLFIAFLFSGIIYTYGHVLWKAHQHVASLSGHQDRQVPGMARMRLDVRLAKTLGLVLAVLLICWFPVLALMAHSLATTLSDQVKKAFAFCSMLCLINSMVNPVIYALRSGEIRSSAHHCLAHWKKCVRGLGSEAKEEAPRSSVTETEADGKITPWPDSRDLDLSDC

The target in this test is T1, hCB2 (Homo sapiens, UniProt P34972).
T1 construct: expressed in transfected cells
The experiment in a line: GTPγ[35S] binding assay, agonist properties on hCB2. In kind it is biochemical.

In turn, `CCCCC/C=C\C/C=C\C/C=C\C/C=C\CCCC(=O)NCCO` [Anandamide] registered an EC50 of 0.099 µM.

The values above are taken from patent publication US20060115816A1, “Splice variant cannabinoid receptor (cb1b)” (priority 2002, published 2006).
